In patent US7632933B2, “Corticotropin releasing factor 2 receptor agonists” (priority 2002, dated 2009):

What was measured:
[1] = target: T1, CRF2R (Homo sapiens, UniProt Q13324); assay: CRF2R agonist activity (EC50 and Emax), called comparative CRF binding; type: cell-based; settings: CRF2R EC50 (nM), CRF2R
T1 sequence (Q13324 1-411): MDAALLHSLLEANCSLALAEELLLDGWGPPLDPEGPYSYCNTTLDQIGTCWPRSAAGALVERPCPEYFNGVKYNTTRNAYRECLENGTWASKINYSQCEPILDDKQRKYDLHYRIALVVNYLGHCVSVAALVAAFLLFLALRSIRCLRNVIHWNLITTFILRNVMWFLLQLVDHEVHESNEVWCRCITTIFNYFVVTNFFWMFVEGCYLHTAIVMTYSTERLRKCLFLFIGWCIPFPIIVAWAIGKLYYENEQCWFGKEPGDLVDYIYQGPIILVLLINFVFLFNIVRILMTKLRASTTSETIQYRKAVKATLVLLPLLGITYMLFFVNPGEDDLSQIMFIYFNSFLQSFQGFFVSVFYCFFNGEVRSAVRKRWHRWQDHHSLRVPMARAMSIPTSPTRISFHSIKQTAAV
How it was run: (§1)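 Functional activity of peptides at each receptor subtype is determined in whole cells by measuring cAMP induction, either directly in lysates or through reporter expression downstream of a cAMP-responsive element, relative to vehicle.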

[2] = target: T2, CRF1R (Homo sapiens, UniProt P34998); assay: CRF1R agonist activity (EC50 and Emax), called comparative CRF binding; type: cell-based; settings: CRF1R EC50 (nM), CRF1R
T2 sequence (P34998 24-415): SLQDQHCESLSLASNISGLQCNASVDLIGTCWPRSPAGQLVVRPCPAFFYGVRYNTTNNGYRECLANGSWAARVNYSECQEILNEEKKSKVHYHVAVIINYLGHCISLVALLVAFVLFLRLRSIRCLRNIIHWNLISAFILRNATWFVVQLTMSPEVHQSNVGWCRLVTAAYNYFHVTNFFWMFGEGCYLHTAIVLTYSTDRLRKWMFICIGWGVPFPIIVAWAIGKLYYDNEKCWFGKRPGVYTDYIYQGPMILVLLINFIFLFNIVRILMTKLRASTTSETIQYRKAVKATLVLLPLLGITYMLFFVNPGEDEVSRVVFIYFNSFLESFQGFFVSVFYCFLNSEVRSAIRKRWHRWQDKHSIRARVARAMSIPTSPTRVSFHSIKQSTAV
How it was run: as §1

Row | SMILES | EC50 [1] [nM] | EC50 [2] [nM]
1 | CC[C@H](C)[C@H](NC(=O)[C@@H](NC(=O)[C@H](CC(=O)O)NC(=O)[C@H](CC(C)C)NC(=O)[C@H](CC(C)C)NC(=O)[C@H](CC(C)C)NC(=O)[C@H](CCCNC(=N)N)NC(=O)[C@H](CC(N)=O)NC(=O)[C@H](CC(N)=O)NC(=O)[C@H](C)NC(=O)[C@H](C)NC(=O)[C@H](CCC(N)=O)NC(=O)[C@H](CCC(N)=O)NC(=O)[C@H](CCCCN)NC(=O)[C@H](CCC(=O)O)NC(=O)[C@H](CCCCN)NC(=O)[C@H](CCC(=O)O)NC(=O)[C@H](CCC(N)=O)NC(=O)[C@H](CCCCN)NC(=O)[C@H](CCC(=O)O)NC(=O)[C@@H](NC(=O)[C@H](CCC(=O)O)NC(=O)[C@@H](NC(=O)[C@H](CCSC)NC(=O)[C@H](CCCCN)NC(=O)[C@H](CCCNC(=N)N)NC(=O)[C@H](CC(C)C)NC(=O)[C@H](CC(C)C)NC(=O)[C@H](CCC(N)=O)NC(=O)[C@@H](NC(=O)[C@@H]1CCCN1C(=O)[C@H](CC(C)C)NC(=O)[C@H](CC(=O)O)NC(=O)[C@@H](NC(=O)[C@H](CO)NC(=O)[C@@H](NC(=O)[C@@H]1CCCN1C(=O)[C@@H]1CCCN1C(=O)CNC(=O)[C@@H]1CCC(=O)N1)[C@@H](C)CC)[C@@H](C)CC)[C@@H](C)O)[C@@H](C)CC)[C@@H](C)CC)[C@@H](C)O)C(N)=O [compound 72] | > 100 | > 100
2 | CC[C@H](C)[C@H](NC(=O)[C@H](CCC(=O)O)NC(=O)[C@@H](NC(=O)[C@H](CCSC)NC(=O)[C@H](CCCCN)NC(=O)[C@H](CCCNC(=N)N)NC(=O)[C@H](CC(C)C)NC(=O)[C@H](CC(C)C)NC(=O)[C@H](Cc1c[nH]cn1)NC(=O)[C@H](Cc1ccc(O)cc1)NC(=O)[C@@H]1CCCN1C(=O)[C@H](CC(C)C)NC(=O)[C@H](CC(=O)O)NC(=O)[C@@H](NC(=O)[C@H](CO)NC(=O)[C@@H](NC(=O)[C@@H]1CCCN1C(=O)[C@@H]1CCCN1C(=O)CNC(=O)[C@@H]1CCC(=O)N1)[C@@H](C)CC)[C@@H](C)CC)[C@@H](C)CC)C(=O)N[C@@H](CCC(=O)O)C(=O)N[C@@H](CCCCN)C(=O)N[C@@H](CCC(N)=O)C(=O)N[C@@H](CCC(=O)O)C(=O)N[C@@H](CCCCN)C(=O)N[C@@H](CCC(=O)O)C(=O)N[C@@H](CCCCN)C(=O)N[C@@H](CCC(N)=O)C(=O)N[C@@H](CCC(N)=O)C(=O)N[C@@H](C)C(=O)N[C@@H](C)C(=O)N[C@@H](CC(N)=O)C(=O)N[C@@H](CC(N)=O)C(=O)N[C@@H](C)C(=O)N[C@@H](CC(C)C)C(=O)N[C@@H](CC(C)C)C(=O)N[C@@H](CC(C)C)C(=O)N[C@@H](C)C(=O)N[C@H](C(N)=O)[C@@H](C)O [compound 315] | 9.35 | 454
3 | CC[C@H](C)[C@H](NC(=O)[C@@H](NC(=O)[C@H](C)NC(=O)[C@H](CC(C)C)NC(=O)[C@H](CC(C)C)NC(=O)[C@H](CC(C)C)NC(=O)[C@H](C)NC(=O)[C@H](CC(N)=O)NC(=O)[C@H](CC(N)=O)NC(=O)[C@H](C)NC(=O)[C@H](C)NC(=O)[C@H](CCC(N)=O)NC(=O)[C@H](CCC(N)=O)NC(=O)[C@H](CCCCN)NC(=O)[C@H](CCC(=O)O)NC(=O)[C@H](CCCCN)NC(=O)[C@H](CCC(=O)O)NC(=O)[C@H](CCC(N)=O)NC(=O)[C@H](CCCCN)NC(=O)[C@H](CCC(=O)O)NC(=O)[C@@H](NC(=O)[C@H](CCC(=O)O)NC(=O)[C@@H](NC(=O)[C@H](CCSC)NC(=O)[C@H](CCCCN)NC(=O)[C@H](CCCNC(=N)N)NC(=O)[C@H](CC(C)C)NC(=O)[C@H](CC(C)C)NC(=O)[C@H](CCC(=O)O)NC(=O)[C@H](CC(C)C)NC(=O)[C@@H]1CCCN1C(=O)[C@H](CC(C)C)NC(=O)[C@H](CC(=O)O)NC(=O)[C@@H](NC(=O)[C@H](CO)NC(=O)[C@@H](NC(=O)[C@@H]1CCCN1C(=O)[C@@H]1CCCN1C(=O)CNC(=O)[C@@H]1CCC(=O)N1)[C@@H](C)CC)[C@@H](C)CC)[C@@H](C)CC)[C@@H](C)CC)[C@@H](C)O)C(N)=O [compound 234] | 20.6 | 434
4 | CC[C@H](C)[C@H](NC(=O)[C@H](CCCNC(=N)N)NC(=O)[C@H](C)NC(=O)[C@H](CC(N)=O)NC(=O)[C@@H](NC(=O)[C@@H](NC(=O)[C@H](C)NC(=O)[C@H](CCC(N)=O)NC(=O)[C@H](CCC(N)=O)NC(=O)[C@H](CCCCN)NC(=O)[C@H](CCC(=O)O)NC(=O)[C@H](CCCCN)NC(=O)[C@H](CCC(=O)O)NC(=O)[C@H](CCC(N)=O)NC(=O)[C@H](CCCCN)NC(=O)[C@H](CCC(=O)O)NC(=O)[C@@H](NC(=O)[C@H](CCC(=O)O)NC(=O)[C@@H](NC(=O)[C@H](CCSC)NC(=O)[C@H](CCCCN)NC(=O)[C@H](CCCNC(=N)N)NC(=O)[C@H](CC(C)C)NC(=O)[C@H](CC(C)C)NC(=O)[C@H](Cc1ccc(O)cc1)NC(=O)[C@@H](NC(=O)[C@@H]1CCCN1C(=O)[C@H](CC(C)C)NC(=O)[C@H](CC(=O)O)NC(=O)[C@@H](NC(=O)[C@H](CO)NC(=O)[C@@H](NC(=O)[C@@H]1CCCN1C(=O)[C@@H]1CCCN1C(=O)CNC(=O)[C@@H]1CCC(=O)N1)[C@@H](C)CC)[C@@H](C)CC)[C@@H](C)O)[C@@H](C)CC)[C@@H](C)CC)[C@@H](C)O)[C@@H](C)O)C(=O)N[C@@H](CC(C)C)C(=O)N[C@@H](C)C(=O)N[C@@H](CCCNC(=N)N)C(=O)N[C@H](C(N)=O)C(C)C [compound 151] | 36.8 | ≥ 1000
5 | CC[C@H](C)[C@H](NC(=O)[C@@H](NC(=O)[C@H](C)NC(=O)[C@H](CC(C)C)NC(=O)[C@H](CC(C)C)NC(=O)[C@H](CC(C)C)NC(=O)[C@H](C)NC(=O)[C@H](CC(N)=O)NC(=O)[C@H](CC(N)=O)NC(=O)[C@H](C)NC(=O)[C@H](C)NC(=O)[C@H](CCC(N)=O)NC(=O)[C@H](CCC(N)=O)NC(=O)[C@H](CCCCN)NC(=O)[C@H](CCC(=O)O)NC(=O)[C@H](CCCCN)NC(=O)[C@H](CCC(=O)O)NC(=O)[C@H](CCC(N)=O)NC(=O)[C@H](CCCCN)NC(=O)[C@H](CCC(=O)O)NC(=O)[C@@H](NC(=O)[C@H](CCC(=O)O)NC(=O)[C@@H](NC(=O)[C@H](CCSC)NC(=O)[C@H](CCCCN)NC(=O)[C@H](CCCNC(=N)N)NC(=O)[C@H](CC(C)C)NC(=O)[C@H](CC(C)C)NC(=O)[C@H](Cc1ccccc1)NC(=O)[C@H](Cc1ccccc1)NC(=O)[C@@H]1CCCN1C(=O)[C@H](CC(C)C)NC(=O)[C@H](CC(=O)O)NC(=O)[C@@H](NC(=O)[C@H](CO)NC(=O)[C@@H](NC(=O)[C@@H]1CCCN1C(=O)[C@@H]1CCCN1C(=O)CNC(=O)[C@@H]1CCC(=O)N1)[C@@H](C)CC)[C@@H](C)CC)[C@@H](C)CC)[C@@H](C)CC)[C@@H](C)O)C(N)=O [compound 319] | 8.5 | 106
